Yeast UUG start – modulators of start codon recognition fidelity in yeast; AID 602363; activity score, % at 18.7 µM; S. cerevisiae UUG-firefly luciferase reporter, luminescence/redox ratio; actives 0.13% (n = 350,000);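 active = replicate mean at a twofold rise or more, about +100% in these data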;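 note: firefly luciferase made from a UUG start codon reports start codon fidelity; reporter light over untreated wells divided by growth signal over untreated wells; some hits fall short of that in this replicate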
Cneo AK release – Cryptococcus neoformans cell lysis inducers, primary screen, AK release luminescence, single concentration. lysis activity, % at 15 µM. C. neoformans lysis, adenylate kinase release luminescence, 4 h; normalised: neutral wells 0, clomiphene wells 100. 0.2% of 360,000 active. AID 651654, 2012;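 active = mean lysis activity across replicates of at least 80%, whatever share of replicates individually reach that level; inactive = mean lysis activity below 80%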
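Assay system: C. neoformans cells. Amount: yeast cell density of 5 × 10^6 cells/mL. Technique: AK luminescence. Buffer or medium: YPD. Times: static 4 h at 37 °C with compound, 1 h detection. Dosing: single-point compound dose. Read-out: lysis from increased AK signal.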
miR-122 sensor – miR-122 Renilla sensor signal increase in Huh7, primary screen, miR-122 inhibitor project, cell-based, single point, plate reader. Huh7 miR-122 Renilla luciferase sensor, 48 h; neutral wells = 0, positive control = 100. activation (reporter increase), % at 12.5 µM. 0.3% of 340,000 active. AID 602342, 2012;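 active = mean replicate activation score at least 90 and every replicate individually at or above 90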;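 also: higher luciferase means less miR-122 activity so hits act as miR-122 inhibitors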
Statin myotox sup – suppressors of statin myotoxicity in C2C12 myotubes, primary screen, cell-based, single point, plate reader; C2C12 myotubes + simvastatin, ATP luminescence, 48 h; scaled: DMSO 0, geranylgeraniol control 100; rescue of ATP level, % at 7.49 µM; 0.78% of 330,000 active; AID 602340, 2012;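 active = mean ATP rescue above about 67%, or every replicate alone reaching that limit, limit read from the data, passing the limit was not always enough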;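 also: myotubes were challenged with 10 µM simvastatin during compound exposure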
* hit, by the source's call; nt = no result; [ ] = dose if it differs, or a comment. Most compounds without a hit are left out; they make up all but 1.2% or so of the library.

smiles	Yeast UUG start	Cneo AK release	miR-122 sensor	Statin myotox sup
COc1ccccc1C#Cc1ccc([C@H]2[C@@H](CO)N3CCCCN(C(=O)C4CC4)C[C@H]23)cc1	33.8	-0.1	-28.0[16.7 µM]	nt
CCOC(=O)C(C)Sc1nc(C2CC2)cc(C(F)(F)F)c1C#N (centres undefined)	nt	nt	0.6	nt
COC(=O)CSc1nc(C2CC2)cc(C(F)(F)F)c1C#N	-13.4	1.2	3.8	99.0*
Cc1c(Cl)ccc(S(=O)(=O)NCCCn2ccnc2)c1Cl	-21.5	-2.2	22.2	8.8
COc1cc(C)c(C(C)C)cc1S(=O)(=O)NCCCn1ccnc1	-9.7	-1.7	13.5	114.2*
COc1c(S(=O)(=O)NCCCn2ccnc2)ccc(Cl)c1Cl	-14.1	-0.4	125.4*	4.5
COc1ccccc1NC(=O)CN1C(=O)CCS(=O)(=O)c2ccccc21	-8.6	1.6	10.1	124.7*
COc1ccc(Cl)cc1NC(=O)CN1C(=O)CCS(=O)(=O)c2ccccc21	-6.6	-0.9	nt	2.4
Cc1cccc(NC(=O)c2ccccc2C(=O)O)c1	-19.2	2.8	-17.7	137.1*
O=C(Nc1cccc(NC(=O)c2ccccc2F)c1)c1ccccc1	-14.5	1.1	0.3	106.6*
Cc1cccc(NC(=O)c2cccc3c2C(=O)c2ccccc2-3)c1	-16.4	6.6	15.0	-68.0
COC(=O)c1cc(Br)c(=O)n(CCN2CCOCC2)c1	-23.6	-2.5	-8.3	104.3*
Cc1ccc2nc(-c3ccc(-c4cccc(Cl)c4)cc3)c(NCc3ccccc3)n2c1	-7.8	0.8	17.1	84.8*
C[C@@H]1CN([C@H](C)CO)C(=O)c2cc(NS(=O)(=O)c3cccs3)ccc2O[C@H]1CN(C)S(=O)(=O)c1cn(C)cn1	2.6	-1.7	-3.3[16.7 µM]	-21.6
CC1CC(C)CN(C(=O)CSC2=Nc3ccccc3C3=NC(Cc4c[nH]c5ccccc45)C(=O)N23)C1 (centres undefined)	1.2	3.4	211.9*	8.0
CC=Cc1ccc2n(c1=O)C[C@@H]1[C@@H](CO)[C@H](C(=O)N3CCCCC3)N(Cc3ccccc3OC)[C@H]21 (mixture of isomers)	-4.7	0.0	-0.9[16.7 µM]	3.8
COc1ccc(OC)c(S(=O)(=O)N2CCC(C(=O)Nc3ccccc3)CC2)c1	-13.0	-1.6	-4.2	91.4*
CCNC(=O)[C@H]1[C@H](CO)[C@H]2Cn3c(ccc(-c4ccncc4)c3=O)[C@H]2N1Cc1ccccc1	nt	2.2	12.1[16.7 µM]	-5.7
Clc1ccc(CNc2nc(N3CCOCC3)nc(N3CCOCC3)n2)cc1	-11.2	-2.4	128.8*	-6.3
CCNc1nc(SCc2ccccc2)nc(N2CCOCC2)n1	-19.1	2.1	0.6	98.5*
c1ccc(CNc2nc(N3CCOCC3)nc(N3CCOCC3)n2)cc1	-14.0	-0.6	6.1	18.6
CN(C)c1nc(SCc2ccccc2)nc(N2CCOCC2)n1	-4.3	0.0	-2.9	1.9
C[C@@H]1CN([C@H](C)CO)C(=O)c2cc(NC(=O)C3CCCCC3)ccc2O[C@H]1CN(C)Cc1ccc(C(=O)O)cc1	-1.7	0.6	-5.2[16.7 µM]	9.1
CN1CCN(C(=O)[C@H]2[C@H](CO)[C@H]3Cn4c(ccc(-c5cccnc5)c4=O)[C@H]3N2CC2CC2)CC1	nt	-6.5	-1.1[16.7 µM]	-10.1
O=[N+]([O-])c1ccc(Sc2cc[n+]([O-])c3ccccc23)c([N+](=O)[O-])c1	-3.8	-2.3	-4.2	80.1*
CCC(=O)Nc1ccc2c(c1)OC[C@H](C)N(CC1CCCCC1)C[C@@H](C)[C@@H](OC)CN(C)C2=O	nt	-2.0	16.1[16.7 µM]	3.5
CCCCOC(=O)CSc1nc(N)c(C#N)c(-c2ccc(OC)cc2)c1C#N	-15.2	-1.3	-3.7	90.2*
CCOC(=O)[C@H]1[C@H]2COc3ccc(Cl)cc3[C@@H]2N2C(=O)c3cc(Cl)ccc3NC(=O)[C@@]12C	0.8	1.8	-7.0	2.9
CCOC(=O)[C@H]1[C@H]2COc3ccc(Cl)cc3[C@@H]2N2C(=O)c3ccccc3NC(=O)[C@@]12C	-1.7	-2.0	-8.2	135.3*
COc1ccc(S(=O)(=O)Nc2ccc3c(c2)C(=O)N([C@@H](C)CO)C[C@H](C)[C@@H](CN(C)C(=O)Cc2ccccc2)OCCCC[C@H](C)O3)cc1	5.5	-0.5	-0.5[16.7 µM]	nt
O=C(C[C@@H]1CC[C@H]2[C@@H](COC[C@@H](O)CN2C(=O)Nc2ccc(Cl)c(Cl)c2)O1)NCc1ccccc1	-1.0	-4.1	-2.8[16.7 µM]	-7.2

By substructure, the compounds so far with a CF3 group (2)
smiles	Yeast UUG start	Cneo AK release	miR-122 sensor	Statin myotox sup
CCOC(=O)C(C)Sc1nc(C2CC2)cc(C(F)(F)F)c1C#N (centres undefined)	nt	nt	0.6	nt
COC(=O)CSc1nc(C2CC2)cc(C(F)(F)F)c1C#N	-13.4	1.2	3.8	99.0*

Another view of part of the listing above:
Under each structure – Yeast UUG start | Cneo AK release | miR-122 sensor | Statin myotox sup
> CCCCOC(=O)CSc1nc(N)c(C#N)c(-c2ccc(OC)cc2)c1C#N
→ -15.2 | -1.3 | -3.7 | 90.2*
> CCOC(=O)[C@H]1[C@H]2COc3ccc(Cl)cc3[C@@H]2N2C(=O)c3cc(Cl)ccc3NC(=O)[C@@]12C
→ 0.8 | 1.8 | -7.0 | 2.9
